Patent publication US4598081A, “1,3-dioxo-1H-benz(de)isoquinoline-2(3H) butyric acid, pharmacologically acceptable salts thereof and compositions containing the same for treatment of diabetes mellitus complications” (Nauchno-Issledovatelsky Institut Endokrinologii I Obmena …, priority 1985, dated 1986)

Key:
White mice = experiment: acute ("high") toxicity, peroral, white mice
Method: (§1) Mature animals both male and female, weighting 18 to 22 g (white mice), 180 to 220 g (rats), 11 to 15 kg (dogs) were used for said experiments.
(§2) The drug was introduced in the form of a starch suspension through a gastric tube.
(§3) Each dose being examined was tested on 5-6 animals.
(§4) LD50 determined by the Lichfield and Wilcoxon method, or the Van der Waerden method was used as an index of high toxicity. The animals were kept under observation for 5 days.

Dogs = experiment: acute ("high") toxicity, peroral, dogs
Method: as §1, §2, §3, §4

rats, rabbits, and dogs = experiment: chronic toxicity, 6 months peroral, observations on rats, rabbits and dogs together; conditions: 50 and 100 mg per kg peroral, five times in a week
Method: The experiments were performed on rats, rabbits, and dogs.
In addition, the action of the proposed drug on the carbohydrate and uropoiesis functions of the liver was also examined.
The above indices were examined at the beginning of the experiment and then after 1, 2, 3, 4, 5, and 6 months.
At the end of the experiments there were carried out pathomorphological examinations of the lungs, heart, liver, kidneys, adrenal glands, spleen, lymph nodes, intestine, stomach, pancreas, and thyroid glands.
On completion of the experiment (six months) the experimental animals were killed: the dogs were killed with thiopental, the rabbits with aeroembolism, and the rats with diethyl ether. Thereafter, the lungs, heart, liver, kidneys, adrenal glands, spleen, lymph nodes, intestine, pancreas and thyroid gland of the killed animals were examined. The material thus obtained was fixed in formole. There were prepared paraffin sections which were then stained with hematoxylin and eosin.

Rats = experiment: acute ("high") toxicity, peroral, rats
Method: as §1, §2, §3, §4

[1] = tested on: white mice, rats, and dogs; experiment: acute ("high") toxicity, symptoms and overall assessment in mice, rats and dogs; conditions: peroral
Method: as §1, §2, §3, §4

O=C(O)CCCN1C(=O)c2cccc3cccc(c23)C1=O [1,3-dioxo-1H-benz(de)isoquinoline-2(3H)butyric acid]
range of lethal concentrations (White mice): 3.4
range of lethal concentrations (Dogs): 2.88
lethal cases among the experimental animals (rats, rabbits, and dogs): no lethal cases
range of lethal concentrations (Rats): 2.36
symptoms of the acute lethal poisoning [1]: flaccidity, hypodynamia, and lower respiration rhythm
